US20220118118A1, “BENZAZEPIN-L,7-DIOL-DERIVED RADIOLABELED LIGANDS WITH HIGH IN VIVO NMDA SPECIFICITY” (ETH ZURICH, priority 2018, published 2022)

Amino acid sequences for entries named in this document (tags omitted). Residues count along the entry.
UniProt Q00960, 27-1482 limits assumed: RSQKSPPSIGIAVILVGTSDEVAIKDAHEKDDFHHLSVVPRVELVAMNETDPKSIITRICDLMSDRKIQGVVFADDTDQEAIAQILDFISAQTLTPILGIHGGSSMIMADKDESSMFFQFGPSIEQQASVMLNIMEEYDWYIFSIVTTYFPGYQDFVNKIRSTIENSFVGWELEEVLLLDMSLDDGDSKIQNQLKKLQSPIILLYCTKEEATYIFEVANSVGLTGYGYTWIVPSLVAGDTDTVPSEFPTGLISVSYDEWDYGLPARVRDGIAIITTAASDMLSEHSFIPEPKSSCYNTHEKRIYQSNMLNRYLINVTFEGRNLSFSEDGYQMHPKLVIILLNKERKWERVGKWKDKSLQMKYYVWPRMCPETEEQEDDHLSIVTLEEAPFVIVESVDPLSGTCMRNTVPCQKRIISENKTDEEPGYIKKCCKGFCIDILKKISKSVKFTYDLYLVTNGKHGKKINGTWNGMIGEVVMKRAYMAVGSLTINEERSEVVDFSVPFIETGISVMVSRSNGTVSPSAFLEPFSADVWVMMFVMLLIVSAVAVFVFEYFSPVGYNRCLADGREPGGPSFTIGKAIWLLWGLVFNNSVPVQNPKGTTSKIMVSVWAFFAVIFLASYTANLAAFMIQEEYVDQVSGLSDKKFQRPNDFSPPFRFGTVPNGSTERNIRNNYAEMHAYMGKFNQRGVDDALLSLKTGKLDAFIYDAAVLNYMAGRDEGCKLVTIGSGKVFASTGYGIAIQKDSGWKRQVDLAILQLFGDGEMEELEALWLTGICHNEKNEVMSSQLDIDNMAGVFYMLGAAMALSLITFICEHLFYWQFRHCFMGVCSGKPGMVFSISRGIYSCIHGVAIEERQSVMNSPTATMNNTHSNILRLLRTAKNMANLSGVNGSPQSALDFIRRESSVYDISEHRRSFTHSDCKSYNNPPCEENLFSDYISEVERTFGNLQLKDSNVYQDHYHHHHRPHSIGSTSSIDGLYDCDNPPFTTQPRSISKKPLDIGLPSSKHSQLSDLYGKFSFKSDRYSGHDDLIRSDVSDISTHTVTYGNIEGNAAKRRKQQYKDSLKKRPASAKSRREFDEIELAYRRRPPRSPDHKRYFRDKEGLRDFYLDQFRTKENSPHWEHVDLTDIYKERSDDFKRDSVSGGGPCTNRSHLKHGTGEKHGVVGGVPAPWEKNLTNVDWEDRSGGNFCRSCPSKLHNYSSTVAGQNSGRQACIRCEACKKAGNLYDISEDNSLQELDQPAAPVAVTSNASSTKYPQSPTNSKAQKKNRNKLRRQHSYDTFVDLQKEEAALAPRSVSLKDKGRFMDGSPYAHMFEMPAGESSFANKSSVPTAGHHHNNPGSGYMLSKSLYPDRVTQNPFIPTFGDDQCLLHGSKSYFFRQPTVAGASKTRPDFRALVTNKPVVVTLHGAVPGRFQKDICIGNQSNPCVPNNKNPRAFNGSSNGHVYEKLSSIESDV
UniProt Q9R0C9, whole entry: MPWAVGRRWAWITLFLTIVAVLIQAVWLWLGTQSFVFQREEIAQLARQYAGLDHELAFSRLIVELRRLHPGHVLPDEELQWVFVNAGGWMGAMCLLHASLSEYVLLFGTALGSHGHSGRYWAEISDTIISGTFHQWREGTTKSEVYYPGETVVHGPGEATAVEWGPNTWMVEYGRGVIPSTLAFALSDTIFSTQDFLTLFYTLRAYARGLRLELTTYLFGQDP

Columns and labels:
[1] = target: GluN2B subunit (Rattus norvegicus, UniProt P35439+Q00960); assay: GluN2B binding competition assay with [3H]ifenprodil; conditions: tested as the radiolabelled form; for Selectivity (σ1R/GluN2B): ratio of Ki values σ1R/GluN2B; for pKi: read-out: GluN2B Affinity (Ki), rat membrane homogenates, [3H]ifenprodil, 25° C., 60 min, Ki from IC50 by Cheng-Prusoff
[2] = target: σ1 receptor (σ1R) (Rattus norvegicus, UniProt Q9R0C9); assay: σ1R binding competition assay with [3H](+)-pentazocine; conditions: read-out: σ1R Affinity (Ki), rat membrane homogenates, 37° C., 150 min, Ki from IC50 by Cheng-Prusoff, tested as the radiolabelled form

Row | SMILES | Selectivity (σ1R/GluN2B) [1] | pKi [1] | pKi [2]
1 | COc1ccc2c(c1)CCN(CCCCc1ccccc1F)CC2O (stereo not drawn) | 0.9 |  | 
2 | Oc1ccc2c(c1)CCN(CCCCc1ccc(F)cc1)CC2O (stereo not drawn) | 52.1 | 7.98 | 
3 | COc1ccc2c(c1)CCN(CCCCc1ccc(F)cc1)CC2O (stereo not drawn) |  |  | 7.92
4 | Oc1ccc2c(c1)CCN(CCCCc1ccccc1F)CC2O (stereo not drawn) | 39.6 | 7.98 | 

pKi: −log10 of the molar value.
